Assay results reported in article PMC4788533 (Investigational new drugs, 2015).

How the values were obtained:
[1] = Cetuximab plasma concentrations; type: in vivo, human
[2] = weekly following a 400 mg/m^2 load, with selumetinib 75 mg PO BID

cetuximab: EGFR-directed therapy (Erbitux, Bristol-Myers Squibb), given IV
Cetuximab plasma concentration, Mean ([1]; Cycle 1 Day 1 (baseline), N=32): 0 µg/mL
Cetuximab steady state concentrations ([1]; achieved by day 8 after the loading dose): 18 to 20 µg/mL
Cetuximab plasma concentration, Mean ([1]; trough, Cycle 1 Day 8, N=31): 18.36 µg/mL
Cetuximab plasma concentration, Mean ([1]; trough, Cycle 1 Day 15, N=28): 20.68 µg/mL
Cetuximab plasma concentration, Mean ([1]; trough, Cycle 1 Day 22, N=26): 18.66 µg/mL
Cetuximab plasma concentration, Mean ([1]; trough, Cycle 2 Day 1, N=32): 21.31 µg/mL
Cetuximab plasma concentration, Mean ([1]; trough, Cycle 3 Day 1, N=18): 16.99 µg/mL
Cetuximab plasma concentration, Mean ([1]; trough, Cycle 4 Day 1, N=7): 7.73 µg/mL
Cetuximab plasma concentration, Mean ([1]; trough, Cycle 5 Day 1, N=5): 7.28 µg/mL
Cetuximab plasma concentration, Mean ([1]; trough, Cycle 6 Day 1, N=1): 9.16 µg/mL
Cetuximab plasma concentration, Mean ([1]; trough, Cycle 7 Day 1, N=1): 8.18 µg/mL
maximum tolerated dose of the combination, cetuximab part [2]: 250 mg/m^2
